# Earlier results as cited in paper PMC9227077 (2022).
# Key:
# [1] = system: human serum albumin; conditions: pH=7.4, isocratic, 10% acetonitrile; available for 37 compounds, remaining calculated by equation; cited from earlier work
# [2] = most values in rats, average if more than one value; cited from earlier work
structure (smiles),measurement,setting,value
CN(C)C(=N)N=C(N)N [Metformin],"logk10,HSA",[1],-1.37
CNC(=C[N+](=O)[O-])NCCSCc1ccc(CN(C)C)o1 [Ranitidine],"fu,brain",[2],0.955
